Reference: patent US11672834B2, “Probiotic and prebiotic compositions, and methods of use thereof for modulation of the microbiome” (Evelo Biosciences, Inc., priority 2014, dated 2023)

System: C57BL/6 mice
Settings: mouse, in vivo

CCN1CCN(c2cc3c(cc2F)c(=O)c(C(=O)O)cn3C2CC2)CC1 [enro, enrofloxacin, reference compound]
serum endotoxin levels: increase in serum endotoxin levels
